# Assay results reported in PubChem BioAssay AID461 (SRMLSC, 2006).
# This is a selection; strong and weak results do not stand in their true shares. Calls of active or inactive are those of the source.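 Rule for the calls: active = Her2 level under about 52% in both replicate screens, with viability over 70% of control (limit read from the data); inconclusive = Her2 under the limit in one screen only, or viability under 70%; inactive = Her2 level above the set limit.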
# Target: Receptor tyrosine-protein kinase erbB-2 (Homo sapiens) (UniProt P04626)
# Assay: reducers of endogenous Her2 protein level, primary screen, SKBR3 breast tumor cells, AlphaScreen, ATP viability (AID 461);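 note: lower value means less Her2 protein in the cells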
# Details: 18-24 h, at 10 µM, active compounds read low
row,Structure (SMILES),Her2 level
1,O=P(Nc1nccs1)(c1ccccc1)c1ccccc1,inactive: 92%
2,CCOP1(=S)c2c(C)nn(CCC#N)c2N=C(c2ccccc2F)N1C (stereo not drawn),inactive: 128%
3,O=C(COc1ccccc1)OC1CN2CCC1CC2 (stereo not drawn),inactive: 90%
